The text below walks through data of ChEMBL document CHEMBL1122799, “Preparation of 7-(1,3,4-oxadiazolyl)-6,14-endo-etheno-6,7,8, 14-tetrahydrothebaines and related compounds as potential analgesics” (1984).

The subject of one assay is Rattus norvegicus. Kind of assay: In vivo analgesic activity was determined by rat tail pressure test (RTP) in rat by subcutaneous administration, 30 minutes prior to challenge.
The subject of another assay is Mus musculus. The assay is described as follows: In vivo analgesic activity determined by Hendershot and Forsaith writhing test (H and F) in mice by subcutaneous administration, 30 minutes prior to challenge. On the technique in general: Writhing tests count abdominal constrictions after an irritant is injected.

Usually ED50 stands for the midpoint of the dose-response relation. A lower ED50 goes with greater potency.

Structures are written as SMILES.

As for `COc1ccc2c3c1O[C@H]1[C@@H](O)C=C[C@H]4[C@@H](C2)N(C)CC[C@@]341.COc1ccc2c3c1O[C@H]1[C@@H](O)C=C[C@H]4[C@@H](C2)N(C)CC[C@@]341.O.O=P(O)(O)O.O=P(O)(O)O`, the figures for the ED50 in the assay on Rattus norvegicus and in the assay on Mus musculus were 13.5 mg/kg and 5.6 mg/kg, respectively.
